Test [1] concerns the target Muscarinic acetylcholine receptor M4 (Homo sapiens, UniProt P08173). The test is described as follows: Positive allosteric modulation of human M4 receptor expressed in CHO cells co-expressing Gqui5 by calcium mobilization assay. The class given is functional, cell-based.
In test [2] the target is Muscarinic acetylcholine receptor M4 (Rattus norvegicus, UniProt P08485). The test is described as follows: Positive allosteric modulation of rat M4 receptor expressed in CHO cells co-expressing Gqui5 by calcium mobilization assay. The class given is functional, cell-based. (Calcium assays in cells follow changes in intracellular calcium, usually with a dye or a luminescent sensor.)

By UniProt entry, the sequences of proteins in these tests, tags left out.
UniProt P08173, whole entry: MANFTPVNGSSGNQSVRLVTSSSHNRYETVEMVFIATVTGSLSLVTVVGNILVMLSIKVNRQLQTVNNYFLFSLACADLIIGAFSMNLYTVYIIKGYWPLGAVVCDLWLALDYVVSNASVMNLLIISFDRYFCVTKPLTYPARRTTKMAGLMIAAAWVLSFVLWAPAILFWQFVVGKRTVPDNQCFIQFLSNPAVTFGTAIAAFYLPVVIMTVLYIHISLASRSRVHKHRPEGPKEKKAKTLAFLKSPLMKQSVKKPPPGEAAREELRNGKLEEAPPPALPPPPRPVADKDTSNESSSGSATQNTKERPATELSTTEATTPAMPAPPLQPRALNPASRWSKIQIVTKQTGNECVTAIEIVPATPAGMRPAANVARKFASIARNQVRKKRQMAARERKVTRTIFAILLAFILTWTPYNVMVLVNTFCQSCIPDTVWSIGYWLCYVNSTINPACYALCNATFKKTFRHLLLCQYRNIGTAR
UniProt P08485, whole entry: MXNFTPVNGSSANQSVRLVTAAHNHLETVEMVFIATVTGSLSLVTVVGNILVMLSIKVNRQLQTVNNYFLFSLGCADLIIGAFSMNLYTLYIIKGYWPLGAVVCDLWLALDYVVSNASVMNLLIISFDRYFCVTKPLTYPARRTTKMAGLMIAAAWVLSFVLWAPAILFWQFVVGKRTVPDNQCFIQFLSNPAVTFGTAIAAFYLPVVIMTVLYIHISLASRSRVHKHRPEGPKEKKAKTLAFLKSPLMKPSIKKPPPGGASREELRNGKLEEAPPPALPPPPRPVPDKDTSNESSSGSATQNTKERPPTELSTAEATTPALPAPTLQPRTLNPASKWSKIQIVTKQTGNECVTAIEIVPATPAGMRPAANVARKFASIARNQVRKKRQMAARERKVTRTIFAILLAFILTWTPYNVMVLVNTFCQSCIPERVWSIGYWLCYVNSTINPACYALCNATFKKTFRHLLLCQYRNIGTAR

As usually defined, the pEC50 is the EC50 on a negative log10 scale, so that one unit is a factor of ten.

Consider `Cc1nnc2sc(C(=O)NCc3ccc(S(=O)(=O)C(F)(F)F)cc3)c(N)c2c1C`, for which the pEC50 is listed as 6.2 in test [1] and 7.75 in test [2].
